Experimental data from ChEMBL document CHEMBL5046218, “Novel Dual-Target μ-Opioid Receptor and Dopamine D3 Receptor Ligands as Potential Nonaddictive Pharmacotherapeutics for Pain Management” (J Med Chem, 2021).

Protein sequences, listed by entry. Tags and fused reporters are not part of them.
UniProt P35372, whole entry, looked up: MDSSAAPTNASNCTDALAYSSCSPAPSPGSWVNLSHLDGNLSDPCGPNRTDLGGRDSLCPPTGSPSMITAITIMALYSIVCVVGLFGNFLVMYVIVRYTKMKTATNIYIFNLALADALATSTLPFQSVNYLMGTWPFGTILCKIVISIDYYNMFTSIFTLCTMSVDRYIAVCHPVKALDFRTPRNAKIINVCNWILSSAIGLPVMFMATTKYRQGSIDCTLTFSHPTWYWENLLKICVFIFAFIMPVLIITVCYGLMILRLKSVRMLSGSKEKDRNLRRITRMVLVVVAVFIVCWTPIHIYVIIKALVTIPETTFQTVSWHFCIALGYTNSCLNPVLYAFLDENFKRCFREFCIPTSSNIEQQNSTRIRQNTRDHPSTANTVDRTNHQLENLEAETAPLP

Target: Mu-type opioid receptor (Homo sapiens, UniProt P35372)
Conditions: hek293

## CCC(=O)C(CCN(C)C)(c1ccccc1)c1ccccc1 [NORMETHADONE]
  Ki: 35.9 nM
